Reference: patent US5280119A, “Heterocyclic amine-boranes, and method of inhibiting DNA topoisomerase activity and/or combatting inflammation, hyperlipidemia, and/or neoplasia using amine-borane compounds” (dated 1994)

Amino acid sequences for entries named in this document (tags omitted). A change or cut given only in a name is not applied to a line headed by its entry.
UniProt Q91V92: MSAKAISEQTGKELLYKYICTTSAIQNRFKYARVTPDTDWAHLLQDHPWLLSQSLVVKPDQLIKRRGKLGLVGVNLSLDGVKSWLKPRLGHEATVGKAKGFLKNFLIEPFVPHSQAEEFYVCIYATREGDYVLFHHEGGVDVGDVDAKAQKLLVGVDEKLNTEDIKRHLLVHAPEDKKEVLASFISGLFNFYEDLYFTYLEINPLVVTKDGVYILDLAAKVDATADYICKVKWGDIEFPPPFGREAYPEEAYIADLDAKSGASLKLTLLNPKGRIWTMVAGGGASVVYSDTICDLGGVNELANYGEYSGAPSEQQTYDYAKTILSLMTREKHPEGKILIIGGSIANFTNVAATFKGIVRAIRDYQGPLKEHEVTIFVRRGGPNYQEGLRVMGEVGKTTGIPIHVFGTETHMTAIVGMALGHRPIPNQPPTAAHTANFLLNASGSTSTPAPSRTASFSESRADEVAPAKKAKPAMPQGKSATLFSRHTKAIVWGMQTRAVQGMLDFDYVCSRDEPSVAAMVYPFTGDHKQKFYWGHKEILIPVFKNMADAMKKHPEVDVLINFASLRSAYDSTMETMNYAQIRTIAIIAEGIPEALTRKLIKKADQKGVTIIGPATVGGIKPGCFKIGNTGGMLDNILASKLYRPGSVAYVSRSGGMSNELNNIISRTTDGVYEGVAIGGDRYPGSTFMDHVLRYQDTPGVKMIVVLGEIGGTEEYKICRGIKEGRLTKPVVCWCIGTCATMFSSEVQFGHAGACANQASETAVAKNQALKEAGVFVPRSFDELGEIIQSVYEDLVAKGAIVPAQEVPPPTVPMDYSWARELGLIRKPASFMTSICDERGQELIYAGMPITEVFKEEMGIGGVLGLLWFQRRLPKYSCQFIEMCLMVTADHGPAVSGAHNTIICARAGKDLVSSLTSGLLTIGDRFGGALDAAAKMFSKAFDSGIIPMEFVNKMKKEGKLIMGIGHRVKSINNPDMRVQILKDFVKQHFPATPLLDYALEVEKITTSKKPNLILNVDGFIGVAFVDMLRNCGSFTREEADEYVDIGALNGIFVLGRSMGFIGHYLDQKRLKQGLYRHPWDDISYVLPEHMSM
UniProt O88908: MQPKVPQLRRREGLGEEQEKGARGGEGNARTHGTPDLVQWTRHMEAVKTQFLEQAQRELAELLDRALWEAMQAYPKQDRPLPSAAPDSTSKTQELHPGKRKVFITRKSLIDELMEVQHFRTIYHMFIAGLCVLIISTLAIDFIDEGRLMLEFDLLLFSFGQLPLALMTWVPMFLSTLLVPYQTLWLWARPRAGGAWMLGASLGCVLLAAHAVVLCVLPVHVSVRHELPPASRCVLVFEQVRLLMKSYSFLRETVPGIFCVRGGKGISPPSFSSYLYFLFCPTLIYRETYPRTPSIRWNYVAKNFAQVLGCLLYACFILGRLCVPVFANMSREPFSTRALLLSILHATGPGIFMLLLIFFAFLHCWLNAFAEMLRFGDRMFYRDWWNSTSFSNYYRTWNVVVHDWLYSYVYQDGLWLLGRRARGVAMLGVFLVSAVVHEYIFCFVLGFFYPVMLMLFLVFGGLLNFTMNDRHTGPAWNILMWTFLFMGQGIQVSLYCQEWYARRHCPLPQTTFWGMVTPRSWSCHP
UniProt Q9QXG4, whole entry, looked up: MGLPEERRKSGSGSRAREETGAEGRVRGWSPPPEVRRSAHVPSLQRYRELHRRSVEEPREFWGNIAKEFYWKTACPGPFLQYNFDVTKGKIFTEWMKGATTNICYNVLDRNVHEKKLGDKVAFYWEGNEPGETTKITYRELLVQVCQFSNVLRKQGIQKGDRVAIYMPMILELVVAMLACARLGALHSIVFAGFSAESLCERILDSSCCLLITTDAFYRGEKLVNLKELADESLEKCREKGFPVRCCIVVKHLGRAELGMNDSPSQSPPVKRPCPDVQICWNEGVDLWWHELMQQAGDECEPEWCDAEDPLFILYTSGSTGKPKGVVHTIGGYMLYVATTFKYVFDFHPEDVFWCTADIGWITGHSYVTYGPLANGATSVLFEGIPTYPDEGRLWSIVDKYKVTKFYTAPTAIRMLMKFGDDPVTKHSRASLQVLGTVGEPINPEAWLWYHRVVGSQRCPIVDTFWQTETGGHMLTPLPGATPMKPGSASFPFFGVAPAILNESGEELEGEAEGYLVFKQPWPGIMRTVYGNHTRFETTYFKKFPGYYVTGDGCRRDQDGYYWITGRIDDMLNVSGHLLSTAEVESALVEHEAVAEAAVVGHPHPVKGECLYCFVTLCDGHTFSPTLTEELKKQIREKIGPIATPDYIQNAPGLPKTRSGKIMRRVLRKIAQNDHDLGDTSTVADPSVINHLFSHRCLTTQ
UniProt Q64505: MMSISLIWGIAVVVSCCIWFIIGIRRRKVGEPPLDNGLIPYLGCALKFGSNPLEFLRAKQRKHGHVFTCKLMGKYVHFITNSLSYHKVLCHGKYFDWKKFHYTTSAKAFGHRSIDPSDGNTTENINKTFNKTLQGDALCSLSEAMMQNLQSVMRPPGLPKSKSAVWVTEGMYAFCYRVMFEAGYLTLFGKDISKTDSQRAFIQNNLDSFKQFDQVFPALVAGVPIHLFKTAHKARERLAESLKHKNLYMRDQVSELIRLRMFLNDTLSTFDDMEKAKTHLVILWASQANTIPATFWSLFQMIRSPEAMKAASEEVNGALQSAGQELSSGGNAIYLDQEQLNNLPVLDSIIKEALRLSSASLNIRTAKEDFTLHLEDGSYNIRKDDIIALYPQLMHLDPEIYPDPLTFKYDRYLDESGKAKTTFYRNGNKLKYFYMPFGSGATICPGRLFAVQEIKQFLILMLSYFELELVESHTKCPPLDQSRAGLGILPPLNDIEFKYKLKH

Assays:
Acetyl CoA Carboxylase = Acetyl CoA Carboxylase (Mus musculus, UniProt Q5SWU9); assay: Acetyl CoA carboxylase, liver in vitro
[1] = Hypolipidemic screen in normal mice; conditions: CF1 male mice, IP
[2] = tested on: P388 lymphocytic leukemia; assay: Cytotoxicity, P388 lymphocytic leukemia; conditions: p388 cells
[3] = tested on: SN Glycerol 3 Phosphate Acyl Transferase; assay: sn-Glycerol-3-phosphate acyl transferase, liver in vitro
[4] = molecular target: ATP Dependent Citrate Lyase (Mus musculus, UniProt Q91V92); assay: ATP dependent citrate lyase, liver homogenate in vitro; conditions: 30 min
[5] = molecular target: Acyl CoA Cholesterol Acyl Transferase (Mus musculus, UniProt O88908); assay: Acyl CoA cholesterol acyl transferase, liver in vitro
[6] = tested on: Neutral Cholesterol Ester Hydrolase; assay: Neutral cholesterol ester hydrolase, liver in vitro
HMG CoA Reductase = assay: HMG CoA reductase (cholesterol synthesis), liver in vitro
Acetyl CoA Synthetase = Acetyl CoA Synthetase (Mus musculus, UniProt Q9QXG4); assay: Acetyl CoA synthetase, liver homogenate in vitro; conditions: 30 min
[7] = tested on: Phosphatidylate Phosphohydrolase; assay: Phosphatidylate phosphohydrolase, liver in vitro; conditions: 30 min
[8] = Serum lipoprotein fractions; conditions: rats, 8 mg/kg/day orally 14 days, N = 6
[9] = tested on: colorectal adenocarcinoma SW480; assay: Cytotoxicity, colorectal adenocarcinoma SW480; conditions: sw480 cells
Lewis lung carcinoma = assay: In vivo Lewis lung carcinoma activity; conditions: 8 mg/kg/day I.P.
[10] = molecular target: Cholesterol 7α Hydroxylase (Mus musculus, UniProt Q64505); assay: Cholesterol-7α-hydroxylase, liver in vitro
[11] = tested on: HeLa-S^3 suspended cervical carcinoma; assay: Cytotoxicity, HeLa-S3; conditions: hela-s3 cells
[12] = Liver, small intestine, aorta, bile and fecal lipid extraction; conditions: rats, 8 mg/kg/day orally 14 days
[13] = tested on: human Tmolt3 acute lymphoblastic T cell leukemia; assay: Cytotoxicity, Tmolt3; conditions: trypan blue exclusion
osteosarcoma TE418 = assay: Cytotoxicity, osteosarcoma TE418
[14] = tested on: KB epidermoid nasopharynx; assay: Cytotoxicity, KB epidermoid nasopharynx
[15] = Hypolipidemic screen in normal rats (serum lipids, body weight, food)
[16] = Anti-inflammatory activity, carrageenan paw; conditions: CF1 Mice, 20 mg/kg × 2 (table head; b1373: 8 mg/kg i.p. 3 hours and 30 minutes before carrageenan)
[17] = tested on: murine L1210 lymphoid leukemia; assay: Cytotoxicity, L1210 lymphoid leukemia; conditions: trypan blue exclusion
[18] = tested on: lung bronchogenic MB-9812; assay: Cytotoxicity, lung bronchogenic MB-9812; conditions: concentration which inhibits 50% of cell growth
[19] = Sprague Dawley male rats, 8 mg/kd/day orally (clofibrate 150 mg/kg/day)

In the case of `CCNC(=O)[BH2-][n+]1ccn(C)c1`, the “Acetyl CoA Carboxylase” value (Acetyl CoA Carboxylase; 25 μM) is reported as 123 ± 9% of Control, the “Acetyl CoA Carboxylase” value (Acetyl CoA Carboxylase; 50 μM) is reported as 121 ± 7% of Control and the “Acetyl CoA Carboxylase” value (Acetyl CoA Carboxylase; 100 μM) is reported as 73 ± 5% of Control. The “Serum Cholesterol Day 9” value ([1]; 8 Mg/kg/day, N = 6) was 74 ± 7% of Control, the “Serum Cholesterol Day 16” value ([1]; 8 Mg/kg/day, N = 6) was 63 ± 4% of Control and the “Serum Triglycerides Day 16” value ([1]; 8 Mg/kg/day, N = 6) was 59 ± 6% of Control. The “serum triglyceride levels lowered” value ([1]; doses of Table 6) was 41%, the “ED50 Cytotoxicity, P388 Lymphocytic Leukemia” value [2] was 6.00 µg/mL (≈ 35.9 µM) and the “SN Glycerol 3 Phosphate Acyl Transferase” value ([3]; 25 μM) was 100 ± 7% of Control. The “SN Glycerol 3 Phosphate Acyl Transferase” value ([3]; 50 μM) was 99% of Control, the “SN Glycerol 3 Phosphate Acyl Transferase” value ([3]; 100 μM) was 97 ± 6% of Control and the “ATP Dependent Citrate Lyase” value ([4]; 25 μM) was 30 ± 2% of Control. For the same compound, the “ATP Dependent Citrate Lyase” value ([4]; 50 μM) was 24 ± 3% of Control, the “ATP Dependent Citrate Lyase” value ([4]; 100 μM) was 22 ± 3% of Control and the “Acyl CoA Cholesterol Acyl Transferase” value ([5]; 25 μM) was 126 ± 6% of Control. The “Acyl CoA Cholesterol Acyl Transferase” value ([5]; 50 μM) was 101 ± 6% of Control, the “Acyl CoA Cholesterol Acyl Transferase” value ([5]; 100 μM) was 93 ± 7% of Control and the “Neutral Cholesterol Ester Hydrolase” value ([6]; 25 μM) was 141 ± 8% of Control. For the same compound, the “Neutral Cholesterol Ester Hydrolase” value ([6]; 50 μM) was 184 ± 8% of Control, the “Neutral Cholesterol Ester Hydrolase” value ([6]; 100 μM) was 424 ± 9% of Control and the “HMG CoA Reductase” value (HMG CoA Reductase; 25 μM) was 66 ± 5% of Control. The “HMG CoA Reductase” value (HMG CoA Reductase; 50 μM) was 61 ± 4% of Control, the “HMG CoA Reductase” value (HMG CoA Reductase; 100 μM) was 22 ± 3% of Control and the “Acetyl CoA Synthetase” value (Acetyl CoA Synthetase; 25 μM) was 101 ± 5% of Control. For the same compound, the “Acetyl CoA Synthetase” value (Acetyl CoA Synthetase; 50 μM) was 85 ± 6% of Control, the “Acetyl CoA Synthetase” value (Acetyl CoA Synthetase; 100 μM) was 79 ± 52% of Control and the “Phosphatidylate Phosphohydrolase” value ([7]; 25 μM) was 60 ± 5% of Control. The “Phosphatidylate Phosphohydrolase” value ([7]; 50 μM) was 53 ± 6% of Control, the “Phosphatidylate Phosphohydrolase” value ([7]; 100 μM) was 47% of Control and the “Chylomicron Cholesterol” value [8] was 120 ± 7% of Control. The “Chylomicron Neutral Lipids” value [8] was 66 ± 6% of Control, the “Chylomicron Phospholipids” value [8] was 11 ± 8% of Control and the “Chylomicron Protein” value [8] was 100 ± 6% of Control. For the same compound, the “Chylomicron Triglyceride” value [8] was 95 ± 7% of Control, the “HDL Cholesterol” value [8] was 326 ± 12% of Control and the “HDL Neutral Lipids” value [8] was 101 ± 6% of Control. The “HDL Phospholipids” value [8] was 65 ± 4% of Control, the “HDL Protein” value [8] was 92 ± 8% of Control and the “HDL Triglyceride” value [8] was 165 ± 6% of Control. For the same compound, the “LDL Cholesterol” value [8] was 36 ± 2% of Control, the “LDL Neutral Lipids” value [8] was 53 ± 5% of Control and the “LDL Phospholipids” value [8] was 73 ± 4% of Control. The “LDL Protein” value [8] was 45 ± 3% of Control, the “LDL Triglyceride” value [8] was 50 ± 4% of Control and the “VLDL Cholesterol” value [8] was 41 ± 3% of Control. For the same compound, the “VLDL Neutral Lipids” value [8] was 89 ± 7% of Control, the “VLDL Phospholipids” value [8] was 88 ± 5% of Control and the “VLDL Protein” value [8] was 69 ± 6% of Control. The “VLDL Triglyceride” value [8] was 90 ± 6% of Control, the “ED50 Cytotoxicity, Human Colon SW480” value [9] was 7.76 µg/mL (≈ 46.5 µM) and the “T/C%, in vivo Lewis lung carcinoma” value (Lewis lung carcinoma) was 120%. The “Cholesterol 7α Hydroxylase” value ([10]; 25 μM) was 112 ± 7% of Control, the “Cholesterol 7α Hydroxylase” value ([10]; 50 μM) was 123 ± 6% of Control and the “Cholesterol 7α Hydroxylase” value ([10]; 100 μM) was 128 ± 5% of Control. The “ED50 Cytotoxicity, Human HeLa-S^3” value [11] was 2.24 µg/mL (≈ 13.4 µM), the “Aorta Cholesterol” value [12] was 73 ± 5% of Control and the “Aorta Neutral Lipids” value [12] was 256 ± 6% of Control. The “Aorta Phosphate Lipids” value [12] was 81 ± 4% of Control, the “Aorta Protein” value [12] was 93 ± 5% of Control and the “Aorta Triglyceride” value [12] was 83 ± 5% of Control. The “Aorta mg Lipid Extracted” value [12] was 117 ± 7% of Control, the “Bile Cholesterol” value [12] was 156 ± 10% of Control and the “Bile Neutral Lipids” value [12] was 104 ± 7% of Control. The “Bile Phosphate Lipids” value [12] was 95 ± 8% of Control, the “Bile Protein” value [12] was 111 ± 5% of Control and the “Bile Triglyceride” value [12] was 121 ± 5% of Control. The “Liver Cholesterol” value [12] was 85 ± 6% of Control, the “Liver Neutral Lipids” value [12] was 115 ± 6% of Control and the “Liver Phosphate Lipids” value [12] was 133 ± 6% of Control. For the same compound, the “Liver Protein” value [12] was 109 ± 7% of Control, the “Liver Triglyceride” value [12] was 78 ± 5% of Control and the “Liver mg Lipid Extracted” value [12] was 74 ± 6% of Control. The “Small Intestine Cholesterol” value [12] was 80 ± 6% of Control, the “Small Intestine Neutral Lipids” value [12] was 104 ± 4% of Control and the “Small Intestine Phosphate Lipids” value [12] was 41 ± 4% of Control. For the same compound, the “Small Intestine Protein” value [12] was 102 ± 6% of Control, the “Small Intestine Triglyceride” value [12] was 95 ± 5% of Control and the “Small Intestine mg Lipid Extracted” value [12] was 88 ± 8% of Control. The “Feces Cholesterol” value ([12]; 24 h collection) was 176 ± 8% of Control, the “Feces Neutral Lipids” value ([12]; 24 h collection) was 127 ± 9% of Control and the “Feces Phosphate Lipids” value ([12]; 24 h collection) was 207 ± 3% of Control. For the same compound, the “Feces Protein” value ([12]; 24 h collection) was 201 ± 8% of Control, the “Feces Triglyceride” value ([12]; 24 h collection) was 63 ± 7% of Control and the “Feces mg Lipid Extracted” value ([12]; 24 h collection) was 130 ± 8% of Control. For the same compound, the “ED50 Cytotoxicity, Human lymphocyte Tmolt3” value [13] was 1.79 µg/mL (≈ 10.7 µM), the “ED50 Cytotoxicity, Human Osteo-Sarcoma” value (osteosarcoma TE418; te418 cells) was 2.53 µg/mL (≈ 15.1 µM) and the “inhibition of growth of human osteosarcoma (in words)” value (osteosarcoma TE418; text summary of Table 4) was “significantly inhibited”. The “ED50 Cytotoxicity, Human KB” value ([14]; kb cells) was 2.52 µg/mL (≈ 15.1 µM), the “activity in the KB nasopharynx screen (in words)” value ([14]; text summary of Table 4) was “good activity” and the “Serum Cholesterol Day 7” value [15, 19] was 74 ± 6% of Control. For the same compound, the “Serum Cholesterol Day 14” value [15, 19] was 58 ± 5% of Control, the “Serum Triglycerides Day 7” value [15, 19] was 91 ± 6% of Control and the “Serum Triglycerides Day 14” value [15, 19] was 78 ± 6% of Control. The “Percent Body Wt” value ([15]; Sprague Dawley male rats, 14 days at 8 mg/kd/day orally, 1% CMC control 131) was 132%, the “Daily food consumption reduced” value ([15]; rats, 8 mg/kg/day orally) was 5% and the “rat serum cholesterol levels lowered” value ([15]; rats, 8 mg/kg/day orally, after 14 days) was “greater than 40%”. The “rat serum triglyceride levels reduced” value ([15]; rats, 8 mg/kg/day orally, day 14) was 22%, the “reduction of the total body weight increase” value ([15]; rats, 8 mg/kg/day orally, over 14 days) was “no effect” and the “% of Control, anti-inflammatory (paw weight increase)” value [16] was 70 % of Control. The “ED50 Cytotoxicity, L1210 Lymphoid Leukemia” value [17] was 1.80 µg/mL (≈ 10.8 µM) and the “ED50 Cytotoxicity, Human Lung Bronchogenic” value [18] was 3.36 µg/mL (≈ 20.1 µM).

In brackets after ≈: the same amount, converted by molar mass.
